Values quoted from earlier work in patent US20250161255A1, “NEW THERAPY AND PREVENTION FOR SUPPRESSING AGING-RELATED DISORDERS INCLUDING SARCOPENIA” (priority 2022, published 2025).

By UniProt entry, the sequences of proteins in these tests, tags left out. Residues count along the entry.
UniProt Q13705, 19-512: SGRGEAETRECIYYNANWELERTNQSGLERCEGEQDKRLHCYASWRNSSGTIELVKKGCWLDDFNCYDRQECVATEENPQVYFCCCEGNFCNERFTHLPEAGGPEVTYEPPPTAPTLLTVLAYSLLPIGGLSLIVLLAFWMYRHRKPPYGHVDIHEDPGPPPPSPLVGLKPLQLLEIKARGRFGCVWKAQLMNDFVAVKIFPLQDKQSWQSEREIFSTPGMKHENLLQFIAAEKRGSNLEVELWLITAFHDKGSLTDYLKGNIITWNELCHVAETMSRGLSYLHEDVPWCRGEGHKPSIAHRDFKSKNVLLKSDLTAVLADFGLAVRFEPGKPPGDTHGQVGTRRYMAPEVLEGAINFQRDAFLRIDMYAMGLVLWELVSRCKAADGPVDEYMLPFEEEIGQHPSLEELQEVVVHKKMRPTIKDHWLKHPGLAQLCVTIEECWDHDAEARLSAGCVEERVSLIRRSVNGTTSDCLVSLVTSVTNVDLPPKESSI

Target: activin receptor ACVR2B (Homo sapiens, UniProt Q13705)
Details: phase II completed 2017; development discontinued 2018; cited from earlier work

## Bimagrumab: monoclonal antibody targeting the activin receptor ACVR2B
  sarcopenia symptoms, including gait speed and grip strength: did not dramatically improve sarcopenia symptoms
